# Measured values published in US5883079A, “Method for inhibiting H. pylori infection in mammalian tissue” (Neose Technologies, Inc., priority 1998, dated 1999).
# Tested on: H. pylori binding to HuTu-80 cell monolayer
# Test: H. pylori binding inhibition to HuTu-80 cell monolayers (microtiter, urease readout)
# Type: cell-based, human (HuTu-80); H. pylori
# Method: Cell cultures, to test for the effectiveness of H. pylori binding inhibition were prepared from human carcinomas stomach cancer epithelial cells HuTu-80 obtained from the American Type Culture Collection Rockville, Md., according to a modified procedure from that reported in Fauchere et al Microbial Pathogenesis 1990;9 427-439. The cultures were maintained in Basal medium Eagle containing 10% fetal calf serum in T-75 flasks, at 37° C. and a 5% CO2 atmosphere. Cells were harvested by trypsin/EDTA release and plated on 96-well flat bottom microtiter plates. The microtiter plates were incubated for 2-3 days until the monolayers grew to confluence. Prior to binding inhibition tests, the monolayer was washed with Hanks Balanced Salt solution (HBSS) containing Ca^+2 and Mg^+2, 0.1% BSA, 50 mM HEPES, 0.01 phenol red or HBHPR.
# H. pylori bacteria isolates were obtained from B. Marshall (from the University of Virginia) and grown on sheep blood agar, collected at 48 h, washed and suspended in a binding buffer of HBSS+0.1% bovine serum albumin+50 mM HEPES buffer+0.01% phenol red or HBHPR.
# In order to test for H. pylori binding inhibition, the concentration of H. pylori which bound to the monolayer was assigned an intermediate OD595 (optical density at 595 nm) (about 0.4 OD units). The same concentration of bacteria and test compound were combined for 10 minutes, then transferred onto the monolayer. Binding was allowed to occur for 20 min at room temperature under mild agitation. The unbound bacteria was washed away with 1 wash of HBHPR, then 2 washes of the same buffer without HEPES buffer (HBPR).
# The amount of bacterial adhesion to the monolayer was measured by incubating with 50 μl urea-phenol red (UPR) solution (0.2% urea, 0.03% phenol red in 0.85% NaCl). The presence of bound bacteria is indicated by the presence of bacterial urease which generates NH3, which raises the pH and changes the color to purple, near at OD595.
# IC50 in mg/ml was determined for each compound tested. The test data is reported below in Table 1:
# IC50 S were determined using the HuTu-80 cell line monolayers. […]
substance,measurement,setting,value
"3' sialyl lactose-HSA: complex of 3' sialyl lactose with HSA, with about 20 molecules of 3' sialyl lactose bound to the HSA",IC50,"HuTu-80 monolayers, H. pylori binding inhibition, Table 1",20 µM
same,Molar activity (relative to 3' sialyl lactose),"HuTu-80 monolayers, relative to 3' sialyl lactose",3.45 × 10^-3
same,times more effective on a molar basis than 3' sialyl lactose,multivalent form vs monovalent,290 times
